Measured values: ChEMBL document CHEMBL1149262, “Monoamine transporter binding, locomotor activity, and drug discrimination properties of 3-(4-substituted-phenyl)tropane-2-carboxylic acid methyl ester isomers” (J Med Chem, 2004)

Sequences of proteins named here, by UniProt entry; tags and fusion partners are left off.
UniProt P31645, whole entry: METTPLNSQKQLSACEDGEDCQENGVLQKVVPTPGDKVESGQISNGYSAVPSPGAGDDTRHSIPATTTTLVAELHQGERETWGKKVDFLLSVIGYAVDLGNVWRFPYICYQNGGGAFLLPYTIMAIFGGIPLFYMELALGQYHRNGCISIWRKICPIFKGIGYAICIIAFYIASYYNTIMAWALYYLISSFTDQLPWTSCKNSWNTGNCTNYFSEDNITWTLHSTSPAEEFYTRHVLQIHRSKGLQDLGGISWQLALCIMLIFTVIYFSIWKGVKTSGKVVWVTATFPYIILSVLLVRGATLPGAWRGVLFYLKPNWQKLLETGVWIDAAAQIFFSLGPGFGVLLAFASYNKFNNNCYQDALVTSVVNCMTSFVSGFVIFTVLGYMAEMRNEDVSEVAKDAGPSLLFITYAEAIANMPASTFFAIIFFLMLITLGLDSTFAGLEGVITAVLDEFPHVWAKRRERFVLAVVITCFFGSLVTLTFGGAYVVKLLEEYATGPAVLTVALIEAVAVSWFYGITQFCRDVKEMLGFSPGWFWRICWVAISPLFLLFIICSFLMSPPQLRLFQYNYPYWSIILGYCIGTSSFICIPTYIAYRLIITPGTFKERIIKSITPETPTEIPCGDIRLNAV

Biological target: Sodium-dependent serotonin transporter (Homo sapiens, UniProt P31645)

COC(=O)[C@H]1C2CCC(C[C@@H]1c1ccccc1)N2C (stereo partly drawn)
IC50: > 10 µM

COC(=O)[C@@H]1C2CCC(C[C@H]1c1ccccc1)N2C (stereo partly drawn)
IC50: 5.7 µM | Ki: 0.518 µM
